Experiments:
[1] = target: Dual specificity tyrosine-phosphorylation-regulated kinase 1A (Homo sapiens, UniProt Q13627); assay: Binding affinity to DYRK1A (unknown origin)
[2] = target: T1, Dual specificity protein kinase CLK3 (Homo sapiens, UniProt P49761); assay: Inhibition of recombinant CLK3 (unknown origin) using Ac-ERMRPRKRQGSVdP(Sox)G-NH2 as substrate after 5 mins by Omnia Kinase Assay
[3] = target: Casein kinase I isoform epsilon (Homo sapiens, UniProt P49674); assay: Binding affinity to CSNK1E (unknown origin)
[4] = target: T1, Dual specificity protein kinase CLK3; assay: Inhibition of CLK3 (R134 to T484 residues) (unknown origin) at 15 uM by isothermal titration calorimetry
[5] = target: Casein kinase I isoform delta (Homo sapiens, UniProt P48730); assay: Binding affinity to CSNK1D (unknown origin)
[6] = target: Dual specificity protein kinase CLK4 (Homo sapiens, UniProt Q9HAZ1); assay: Binding affinity to CLK4 (unknown origin)
[7] = target: T1, Dual specificity protein kinase CLK3; assay: Binding affinity to CLK3 (unknown origin)

The chains behind the UniProt entries cited, without tags or fusion partners. Where a name states a change or a piece, a line headed by the entry shows the natural chain unless it says otherwise.
UniProt P49761: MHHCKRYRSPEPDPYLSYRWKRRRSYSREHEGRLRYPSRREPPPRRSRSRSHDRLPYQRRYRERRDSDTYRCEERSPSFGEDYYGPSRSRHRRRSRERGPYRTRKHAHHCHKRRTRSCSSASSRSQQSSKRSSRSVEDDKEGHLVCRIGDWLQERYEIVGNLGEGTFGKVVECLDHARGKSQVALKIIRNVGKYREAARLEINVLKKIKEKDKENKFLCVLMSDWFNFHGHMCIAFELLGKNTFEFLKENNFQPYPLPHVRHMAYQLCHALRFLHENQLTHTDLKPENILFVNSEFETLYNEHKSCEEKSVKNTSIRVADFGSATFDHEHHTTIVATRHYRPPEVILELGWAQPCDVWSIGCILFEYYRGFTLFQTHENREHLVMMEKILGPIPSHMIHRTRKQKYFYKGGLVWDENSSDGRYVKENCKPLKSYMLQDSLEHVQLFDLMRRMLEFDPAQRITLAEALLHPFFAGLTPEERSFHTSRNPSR
UniProt P49674: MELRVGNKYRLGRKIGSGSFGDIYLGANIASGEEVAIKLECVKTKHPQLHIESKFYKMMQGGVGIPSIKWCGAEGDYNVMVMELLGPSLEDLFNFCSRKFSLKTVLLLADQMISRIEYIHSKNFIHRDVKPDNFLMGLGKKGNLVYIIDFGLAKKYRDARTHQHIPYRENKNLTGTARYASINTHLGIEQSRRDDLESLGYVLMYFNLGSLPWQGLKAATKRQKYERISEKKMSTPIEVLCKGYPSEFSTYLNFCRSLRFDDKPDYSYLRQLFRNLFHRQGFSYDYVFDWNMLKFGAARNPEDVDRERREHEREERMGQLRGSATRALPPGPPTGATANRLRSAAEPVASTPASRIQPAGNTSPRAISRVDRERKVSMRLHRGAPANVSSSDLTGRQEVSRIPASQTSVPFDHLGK
UniProt P48730: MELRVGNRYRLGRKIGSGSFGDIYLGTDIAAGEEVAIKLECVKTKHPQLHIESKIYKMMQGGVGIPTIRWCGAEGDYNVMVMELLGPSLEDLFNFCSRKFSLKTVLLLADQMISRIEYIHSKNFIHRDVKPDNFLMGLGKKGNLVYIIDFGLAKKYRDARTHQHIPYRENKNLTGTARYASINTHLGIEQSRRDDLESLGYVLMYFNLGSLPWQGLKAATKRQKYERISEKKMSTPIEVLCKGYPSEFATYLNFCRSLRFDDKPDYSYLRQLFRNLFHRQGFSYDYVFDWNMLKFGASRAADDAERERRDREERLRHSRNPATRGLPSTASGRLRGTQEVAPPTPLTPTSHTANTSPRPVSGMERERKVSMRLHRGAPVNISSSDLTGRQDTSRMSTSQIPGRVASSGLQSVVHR
UniProt Q9HAZ1: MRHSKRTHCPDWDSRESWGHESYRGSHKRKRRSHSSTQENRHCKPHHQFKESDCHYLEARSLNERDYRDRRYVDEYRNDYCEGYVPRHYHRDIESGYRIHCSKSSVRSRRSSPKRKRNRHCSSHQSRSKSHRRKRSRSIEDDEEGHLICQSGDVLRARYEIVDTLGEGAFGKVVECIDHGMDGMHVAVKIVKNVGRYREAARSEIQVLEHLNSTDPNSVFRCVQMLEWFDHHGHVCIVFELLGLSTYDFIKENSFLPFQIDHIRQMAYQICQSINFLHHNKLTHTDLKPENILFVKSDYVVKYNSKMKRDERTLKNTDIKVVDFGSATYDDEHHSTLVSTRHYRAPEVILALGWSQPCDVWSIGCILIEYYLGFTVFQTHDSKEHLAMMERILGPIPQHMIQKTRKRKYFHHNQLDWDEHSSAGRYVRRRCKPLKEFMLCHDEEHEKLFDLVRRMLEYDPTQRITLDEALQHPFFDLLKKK

Kd [1]: 0.1 µM
Ki [2]: 5.2 µM
Kd [3]: 0.1 µM
Kd [4]: 7.78 µM
Kd [5]: 0.1 µM
Kd [6]: < 0.1 µM
Kd [7]: 1 µM
Compound: CCN1/C(=C\C(C)=O)Sc2ccc(OC)cc21

From ChEMBL document CHEMBL4725345, “DFG-1 Residue Controls Inhibitor Binding Mode and Affinity, Providing a Basis for Rational Design of Kinase Inhibitor Selectivity” (J Med Chem, 2020)
